## Measured melting point values of organic chemicals

Values as listed in the OPERA 2.9 repository of K. Mansouri.

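These are experimental values that the OPERA curators gathered from public databases to train and test their QSAR models. One number stands for a compound and property, with no spread given. How each value was measured is not recorded, so precision varies. A value may pool stereoisomers or salt forms, and the file does not say which form was measured. Unmarked limits or estimates from the upstream databases cannot be ruled out.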

The melting point is given in degrees Celsius. "–" marks a cell with nothing listed here. "via" names the databases from which the curators took the value.

compound | name | melting point (°C) | via
Nc1nc(-c2cccnc2)cs1 | 4-(3-Pyridinyl)-2-thiazolamine | 191 | OCHEM
C=C(C)C(=O)OCCCCCCCCCCCCCCCC | 2-Propenoic acid, 2-methyl-, hexadecyl ester | 16 | eChemPortal
CC1CC(C)(C)CC2(C1)NC(=O)NC2=O (stereo unspecified) | 7,7,9-Trimethyl-1,3-diaza-spiro[4.5]decane-2,4-dione | 274 | OCHEM
O=C(O)CNC(=O)c1ccccc1Cl | Acetic acid,  2-((2-chlorobenzoyl)amino)- | 183 | OCHEM
O=C(O)C1(c2cccc(Cl)c2)CCC1 | 1-(3-chlorophenyl)cyclobutanecarboxylic acid | 102 | OCHEM
O=[N+]([O-])c1ccc2c(c1)CCCN2 | 6-Nitro-1,2,3,4-tetrahydroquinoline | 156 | OCHEM
CC(=O)OC[C@H]1O[C@H](Br)[C@H](OC(C)=O)[C@@H](OC(C)=O)[C@@H]1OC(C)=O | Acetobromglucose | 88.5 | OCHEM
O=C(O)Cn1nnc2ccccc2c1=O | (4-oxo-1,2,3-benzotriazin-3(4H)-yl)acetic acid | 148 | OCHEM
O=C1CC2(CCCC2)C(=O)O1 | 2-oxaspiro[4.4]nonane-1,3-dione | 34 | OCHEM
O=P([O-])(OCc1ccccc1)OCc1ccccc1.[K+] | Phosphoric acid bis(phenylmethyl) ester potassium salt (1:1) | 229.9 | eChemPortal
C/C=C/CCC1CCC([C@H]2CC[C@H](CCC)CC2)CC1 (some centres undefined) | – | 75.1 | eChemPortal
CC(C)C(=O)Nc1ccc(N)cc1 | N-(4-aminophenyl)-2-methylpropanamide | 75 | OCHEM
CC1(C)COC(C)(CCCc2ccc(Cl)cc2)N1C(=O)n1ccnc1.CC1(C)COC(C)(CCCc2ccc(Cl)cc2)N1C(=O)n1ccnc1.O=C(O)/C=C/C(=O)O (stereo partly drawn) | Oxpoconazole fumarate | 124 | OCHEM
Cc1nccc(C(=O)O)n1 | 2-Methylpyrimidine-4-carboxylic acid | 207 | OCHEM
NS(=O)(=O)CCN1C(=O)c2ccccc2C1=O | 2-Phthalimidoethanesulfonamide | 210.8 | eChemPortal
O=C(Nc1ccc(Cc2ccc(NC(=O)Oc3ccccc3)cc2)cc1)Oc1ccccc1 | Diphenyl (methylenedi-4,1-phenylene)biscarbamate | 192.9 | eChemPortal
CCCS(=O)(=O)Nc1ccc(F)c(C(=O)c2cn(C(=O)c3c(Cl)cccc3Cl)c3ncc(Br)cc23)c1F | – | 209 | eChemPortal
CCOC(=O)c1sc(-c2ccc(OC)cc2)cc1N | Ethyl 3-amino-5-(4-methoxyphenyl)thiophene-2-carboxylate | 121 | OCHEM
Cc1cc2ccc3cccc4ccc(c1)c2c34 | 2-Methylpyrene | 143 | PubChem
O=C(O)c1n[nH]c2c1CCC2 | 1,4,5,6-Tetrahydrocyclopenta[c]pyrazole-3-carboxylic acid | 288 | OCHEM
C[C@@H]1CCO[C@H]2Cn3cc(C(=O)NCc4ccc(F)cc4F)c(=O)c(O)c3C(=O)N12 | Dolutegravir | 191.5 | PubChem
N#CCCN(CCOC(=O)c1ccccc1)c1ccc(N=Nc2ccc([N+](=O)[O-])cc2)cc1 | C.I. Disperse Orange 73 | 150.8 | eChemPortal
O=C(O)COc1ccc(F)cc1Cl | (2-chloro-4-fluorophenoxy)acetic acid | 141 | OCHEM
O=C(O)CCN1C(=O)c2ccccc2S1(=O)=O | – | 165 | OCHEM
N#Cc1ccccc1P(c1ccccc1)c1ccccc1 | Benzonitrile, 2-(diphenylphosphino)- | 149 | eChemPortal
O=C(O)CNC(=O)c1cccs1 | [(Thiophene-2-carbonyl)-amino]-acetic acid | 170 | OCHEM
FC(F)(F)C(F)(F)C(F)(F)C(F)(F)C(F)(F)C(F)(F)C(F)(F)C(F)(F)CCc1ccc(P(c2ccccc2)c2ccccc2)cc1 | – | 83 | ChemicalBook
O=C(O)c1c(F)ccc(S(=O)(=O)Cl)c1F | 3-Chlorosulfonyl-2,6-difluoro-benzoic acid | 109 | OCHEM
NNc1cnccn1 | 2-hydrazinylpyrazine | 111 | OCHEM
NCC1C2CCC(C2)C1CN (stereo unspecified) | (Bicyclo[2.2.1]heptane-2,3-diyl)dimethanamine | 15.5 | eChemPortal
Ic1c(-c2ccccc2)cccc1-c1ccccc1 | 2'-Iodo-1,1':3',1''-terphenyl | 114.5 | OCHEM
CC(=O)NCC(=O)NCCC(=O)O | N-Acetylglycyl-beta-alanine | 167 | eChemPortal
CN(c1ccccc1)S(=O)(=O)c1ccccc1C(=O)O | 2-[Methyl(phenyl)sulfamoyl]benzoic acid | 137 | OCHEM
C[C@@H](Oc1ccc(O)cc1)C(=O)[O-].[HH].[K+] | potassium (R)-2-(4-hydroxy-phenoxy)-propionate | 103 | eChemPortal
NN=C1c2ccccc2C(=O)C1C(=O)C(c1ccccc1)c1ccccc1 (stereo unspecified) | 2-(Diphenylacetyl)-1,3-indandione 1-hydrazone | 242 | OCHEM
O=C(O)COc1cccc2cccnc12 | (Quinolin-8-yloxy)-acetic acid | 126 | OCHEM
O=C(O)CCC(=O)N1CCOCC1 | 4-(Morpholin-4-yl)-4-oxobutanoic acid | 63 | OCHEM
Cc1ccc(Br)cc1S(N)(=O)=O | 5-bromo-2-methylbenzenesulfonamide | 140 | OCHEM
C=C(C)[C@H]1CC[C@H](C)C(=O)C1 | L-dihydrocarvone | -11 | OCHEM
O=C1CC(C(=O)O)c2ccccc2N1 (stereo unspecified) | 2-oxo-1,2,3,4-tetrahydroquinoline-4-carboxylic acid | 212 | OCHEM
O=C(O)CCCCCN1C(=O)CSC1=S | 3-Thiazolidinehexanoic acid, 4-oxo-2-thioxo- | 86 | OCHEM
Cc1cc2nc(N)sc2cc1C | 2-Amino-5,6-dimethylbenzothiazole | 186.9 | PubChem
Cc1ccc(S(=O)(=O)Cl)cc1C(=O)O | 5-(Chlorosulfonyl)-2-methylbenzoic acid | 150 | OCHEM
CON(C)S(=O)(=O)c1ccc(N)cc1 | 4-amino-N-methoxy-N-methylbenzenesulfonamide | 149 | OCHEM
Cc1ccc(NC(=O)C2CCNCC2)nc1 | N-(5-Methylpyridin-2-yl)piperidine-4-carboxamide | 146 | OCHEM
C=CCCCCCCCC(=O)N(C)C | 9-Decenamide, N,N-dimethyl- | -11.2 | eChemPortal

The 6 highest values of melting point among the entries above:

compound | name | melting point (°C) | via
O=C(O)c1n[nH]c2c1CCC2 | 1,4,5,6-Tetrahydrocyclopenta[c]pyrazole-3-carboxylic acid | 288 | OCHEM
CC1CC(C)(C)CC2(C1)NC(=O)NC2=O (stereo unspecified) | 7,7,9-Trimethyl-1,3-diaza-spiro[4.5]decane-2,4-dione | 274 | OCHEM
NN=C1c2ccccc2C(=O)C1C(=O)C(c1ccccc1)c1ccccc1 (stereo unspecified) | 2-(Diphenylacetyl)-1,3-indandione 1-hydrazone | 242 | OCHEM
O=P([O-])(OCc1ccccc1)OCc1ccccc1.[K+] | Phosphoric acid bis(phenylmethyl) ester potassium salt (1:1) | 229.9 | eChemPortal
O=C1CC(C(=O)O)c2ccccc2N1 (stereo unspecified) | 2-oxo-1,2,3,4-tetrahydroquinoline-4-carboxylic acid | 212 | OCHEM
NS(=O)(=O)CCN1C(=O)c2ccccc2C1=O | 2-Phthalimidoethanesulfonamide | 210.8 | eChemPortal